Assay results taken from US20100120063A1, “GPCR Arrestin Assays” (DISCOVERX CORPORATION, priority 2008, published 2010).

Molecular target: OPRM1-PK (opiod receptor mu-1 fused to PK) (E. coli) (UniProt P35372)
Assay: cell-based or functional assay

BOTTOM of the deltorphin dose-response fit, EFC chemiluminescence, U2OS cells with OPRM1-PK and OPRD1: 614
BOTTOM of the deltorphin dose-response fit, EFC chemiluminescence, U2OS cells with OPRM1-PK only: 722
TOP of the deltorphin dose-response fit, EFC chemiluminescence, U2OS cells with OPRM1-PK and OPRD1: 5380
TOP of the deltorphin dose-response fit, EFC chemiluminescence, U2OS cells with OPRM1-PK only: 14400
Substance: arrestin-EA fusion protein (beta arrestin fused at its C terminus to the EA fragment of β-galactosidase) (from UniProt P49407 1-418; P00722 48-1024)
